Our source for the MIC values is patent USRE28744E, “Crystalline p-hydroxyampicillin and salts thereof” (priority 1968, dated 1976).

Molecules are shown by their SMILES. Values after ≈ are worked out from the molar mass of the structure shown.

What all share (format): cell-based
One experiment relates to Salm. typhi. The experiment is described as follows: in vitro antibacterial screening, M.I.C., Salm. typhi. The note with it: Salmonella enterica, read-out: M.I.C. Salm. typhi, in vitro.
The subject of a further experiment is Kleb. pneum. The experiment is described as follows: in vitro antibacterial screening, M.I.C., Kleb. pneum. The note with it: read-out: M.I.C. Kleb. pneum, in vitro.
The next experiment concerns Proteus mirabilis. Put plainly: in vitro antibacterial screening, M.I.C., Proteus mirabilis. As to conditions: read-out: M.I.C. Proteus mirabilis.
Another experiment relates to Shigella flexneri. Put plainly: in vitro antibacterial screening, M.I.C., Shigella flexneri.

For `CC1(C)S[C@@H]2[C@H](NC(=O)[C@H](N)c3ccc(O)cc3)C(=O)N2[C@H]1C(=O)O` [Example 3, 6-[(-)α-amino-p-hydroxyphenylacetamido]Penicillanic Acid], the MIC with Salm. typhi, in the experiment on Kleb. pneum and in the experiment with Proteus mirabilis was 1.25 µg/mL (≈ 3.42 µM) in each case.
`CC1(C)S[C@@H]2[C@H](NC(=O)[C@@H](N)c3ccc(O)cc3)C(=O)N2[C@H]1C(=O)O` [Example 4, 6[(+)α-amino-p-hydroxyphenylacetamido]penicillanic Acid]: the MIC with Salm. typhi, in the experiment on Shigella flexneri and in the experiment on Proteus mirabilis was 12.5 µg/mL (≈ 34.2 µM) in each case.
